Values quoted from earlier work as cited in patent US20250161255A1, “NEW THERAPY AND PREVENTION FOR SUPPRESSING AGING-RELATED DISORDERS INCLUDING SARCOPENIA” (priority 2022, published 2025).

Protein sequences, listed by entry. Tags and fused reporters are not part of them. Residues count along the entry.
UniProt Q13705, 19-512: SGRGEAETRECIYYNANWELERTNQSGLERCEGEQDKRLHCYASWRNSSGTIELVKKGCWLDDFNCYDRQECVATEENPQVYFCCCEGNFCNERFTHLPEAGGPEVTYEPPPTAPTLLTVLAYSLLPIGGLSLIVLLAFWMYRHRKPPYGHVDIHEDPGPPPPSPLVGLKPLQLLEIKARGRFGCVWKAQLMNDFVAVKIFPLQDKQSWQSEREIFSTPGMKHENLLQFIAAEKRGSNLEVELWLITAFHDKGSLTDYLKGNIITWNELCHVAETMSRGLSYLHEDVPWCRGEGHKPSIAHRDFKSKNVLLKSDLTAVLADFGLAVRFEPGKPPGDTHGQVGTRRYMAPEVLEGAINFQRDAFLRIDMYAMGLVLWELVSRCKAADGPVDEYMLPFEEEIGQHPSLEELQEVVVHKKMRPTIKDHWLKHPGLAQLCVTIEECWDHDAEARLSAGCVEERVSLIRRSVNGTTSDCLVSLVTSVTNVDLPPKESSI

Molecular target: activin receptor ACVR2B (Homo sapiens, UniProt Q13705)
Conditions: phase II completed 2017; development discontinued 2018; cited from earlier work

Substance: Bimagrumab: monoclonal antibody targeting the activin receptor ACVR2B
- sarcopenia symptoms, including gait speed and grip strength: did not dramatically improve sarcopenia symptoms
